Publication PMC5728538

The chains behind the UniProt entries cited, without tags or fusion partners. Where a name states a change or a piece, a line headed by the entry shows the natural chain unless it says otherwise.
UniProt Q93009, whole entry: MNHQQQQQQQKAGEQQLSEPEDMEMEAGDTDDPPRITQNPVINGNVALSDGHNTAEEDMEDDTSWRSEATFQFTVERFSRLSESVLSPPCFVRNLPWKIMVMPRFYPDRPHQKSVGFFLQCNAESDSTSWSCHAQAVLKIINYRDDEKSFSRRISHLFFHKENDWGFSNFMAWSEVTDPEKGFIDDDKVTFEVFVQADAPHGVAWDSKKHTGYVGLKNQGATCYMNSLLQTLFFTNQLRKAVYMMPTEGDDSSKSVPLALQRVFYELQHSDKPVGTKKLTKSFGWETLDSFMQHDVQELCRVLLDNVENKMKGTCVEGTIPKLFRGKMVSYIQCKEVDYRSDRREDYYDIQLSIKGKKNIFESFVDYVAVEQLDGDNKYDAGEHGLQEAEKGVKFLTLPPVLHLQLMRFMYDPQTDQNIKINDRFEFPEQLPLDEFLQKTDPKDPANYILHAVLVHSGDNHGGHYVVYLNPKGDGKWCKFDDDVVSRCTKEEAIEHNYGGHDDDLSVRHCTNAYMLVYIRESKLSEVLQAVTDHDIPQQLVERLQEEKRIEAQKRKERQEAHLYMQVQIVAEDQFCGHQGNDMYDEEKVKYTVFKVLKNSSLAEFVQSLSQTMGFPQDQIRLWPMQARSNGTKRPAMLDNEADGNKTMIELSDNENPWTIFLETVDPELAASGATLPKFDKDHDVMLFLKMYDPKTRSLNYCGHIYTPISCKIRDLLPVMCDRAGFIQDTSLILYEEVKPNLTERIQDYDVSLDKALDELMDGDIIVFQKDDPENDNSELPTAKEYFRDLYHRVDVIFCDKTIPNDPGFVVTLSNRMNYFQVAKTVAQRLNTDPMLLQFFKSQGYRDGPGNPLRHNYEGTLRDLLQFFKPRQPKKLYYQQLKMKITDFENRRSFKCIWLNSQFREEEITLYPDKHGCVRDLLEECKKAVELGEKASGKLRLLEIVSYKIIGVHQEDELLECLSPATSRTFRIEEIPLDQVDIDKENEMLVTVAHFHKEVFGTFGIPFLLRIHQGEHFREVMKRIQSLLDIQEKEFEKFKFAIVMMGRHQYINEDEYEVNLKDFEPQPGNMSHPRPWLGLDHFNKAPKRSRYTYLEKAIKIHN

Assays:
USP7 = USP7 (Homo sapiens, UniProt Q93009); experiment: Ub-VME based USP7 activity assay, Jurkat cells; conditions: 30 μM
USP7 core WT = USP7 core WT (Homo sapiens, UniProt Q93009); experiment: LC-MS and LC-MS/MS adduct analysis, USP7 core WT; conditions: S3 Fig

CC(=O)c1cc([N+](=O)[O-])c(Sc2cccc(Cl)c2Cl)s1
inhibition of cellular USP7 activity (USP7-Ub-VME complex formation) (USP7): inhibited nearly all of the activity
adduct formation on USP7 core (WT vs C223A) (USP7 core WT): selectively formed adduct on the active site cysteine
